Measured values reported in patent US20240228570A9, “PLATFORM TECHNOLOGY FOR TREATMENT OF INFLAMMATORY, IMMUNOLOGICAL AND/OR AUTOIMMUNOLOGICAL DISEASES” (ellennbe GmbH, priority 2021, published 2024).

Test system: inflammatory disease, immunological disease and/or autoimmunological disease
Assay: Treatment of patients: condition as stated by patient and physician (pain, fatigue, daily life, duration of effect, relapses)
Type: in vivo, human
Conditions: Patient 7, rheumatoid arthritis/synovitis; before or beside the treatment of IE 7
Method: All patients treated in the following Inventive Examples, Reference Examples and Comparative Examples were selected solely based on their diagnosis without performing a preselection in view of other parameters.
Annotation to the Tables 8A and B and 9 to 10: Patients were usually examined and treated in the same session. The success of the treatment or the effect thereof was then determined in the following session, usually one week later, and the next treatment performed as indicated in the tables.

Substance: abatacept: selective immunosuppressive inhibiting T-cell activation
- effectiveness of earlier or basic treatment (patient history): insufficient effectiveness
